Test results reported in PMC2894972, “Protein-Protein Interaction Antagonists as Novel Inhibitors of Non-Canonical Polyubiquitylation” (PLoS ONE, 2010).

The chains behind the UniProt entries cited, without tags or fusion partners. Residues count along the entry.
UniProt P61088, whole entry: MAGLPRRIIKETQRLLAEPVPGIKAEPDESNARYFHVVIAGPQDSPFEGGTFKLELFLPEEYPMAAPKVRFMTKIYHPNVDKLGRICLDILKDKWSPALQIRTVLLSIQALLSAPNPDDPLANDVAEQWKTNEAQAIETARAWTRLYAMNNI
UniProt Q13404, 2-147 partner limits assumed: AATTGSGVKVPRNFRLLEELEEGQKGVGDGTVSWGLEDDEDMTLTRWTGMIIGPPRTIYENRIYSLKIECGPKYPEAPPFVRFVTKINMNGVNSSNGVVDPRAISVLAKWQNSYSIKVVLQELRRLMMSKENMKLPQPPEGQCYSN

Columns and labels:
[1] = target: Ubc13 (Homo sapiens, UniProt P61088); assay: surface plasmon resonance, lysine derivative of Ia immobilized on the chip, Ubc13 in mobile phase; settings: read-out: dissociation constant; labelled compound: lysine derivative immobilized on CM chip; value printed as that of compound Ia
[2] = target: Ubc13-Uev1 heterodimer (Homo sapiens, UniProt P61088); assay: surface plasmon resonance competition: Ubc13 preincubated with compound, injected over immobilized Uev1; settings: inhibition of Ubc13-Uev1 interaction; Ubc13 400 nM; 10 mM HEPES, 0.15 M NaCl, pH 7.4; legend prints 10 pM

Kd [1] [pM]	IC50 [2] [pM]	SMILES
4.4	–	NCCCCC(NC(=O)CN(CCc1ccccn1)C(=O)C1CC(=O)N(CCc2ccc(F)cc2)CC(=O)N1CCc1ccc(F)cc1)C(N)=O (centres unmarked)
–	10	NC(=O)CN(CCc1ccccn1)C(=O)C1CC(=O)N(CCc2ccc(F)cc2)CC(=O)N1CCc1ccc(F)cc1 (centres unmarked)
